Test [1] has as its target T1, 5-HT4 receptor (Rattus norvegicus, UniProt Q62758).
T1 construct: The inner tunica muscularis mucosa was mounted under 0.2-0.3 g of tension in a tissue bath; from tissue; host or cells: rat intrathoracic esophagus, tunica muscularis mucosae
The test is described as follows: In vitro functional assay for serotonin 5-HT4 agonism: rat TMM (relaxation of carbachol-contracted tunica muscularis mucosae). It is filed as biochemical. On the procedure: (§1) 5-HT4 agonist activity was determined in the in vitro rat tunica muscularis mucosae (TMM) assay. (Baxter et al., Naunyn Schmied Arch. Pharmacol, 1991, 343, 439). The 5-HT4 agonist or antagonist and/or 5-HT3 antagonist activity of the compounds of the invention can be determined by these assays described herein, without undue experimentation.
Agonist activity was determined utilizing relaxation of carbachol-contracted rat tunica muscularis mucosae. One 2 cm segment of intrathoracic esophagus proximal to the diaphragm was removed from male rats, weighing approximately 300 gm, and the outer muscle layers removed. The inner tunica muscularis mucosa was mounted under 0.2-0.3 g of tension in a tissue bath containing oxygenated Tyrode's solution at 37° C. […] Following a 30 min equilibrium period, tissues were isometrically contracted with carbachol (3 μM) to obtain a tonic contraction. A stable plateau was obtained within 20 min when test compound was added cumulatively to relax the muscle strip. EC50 values were obtained for each agonist in tissues from 5 rats.

Sequences of proteins named here, by UniProt entry; tags and fusion partners are left off. A change or cut given only in a name is not applied to a line headed by its entry. Residues count along the entry.
UniProt Q62758: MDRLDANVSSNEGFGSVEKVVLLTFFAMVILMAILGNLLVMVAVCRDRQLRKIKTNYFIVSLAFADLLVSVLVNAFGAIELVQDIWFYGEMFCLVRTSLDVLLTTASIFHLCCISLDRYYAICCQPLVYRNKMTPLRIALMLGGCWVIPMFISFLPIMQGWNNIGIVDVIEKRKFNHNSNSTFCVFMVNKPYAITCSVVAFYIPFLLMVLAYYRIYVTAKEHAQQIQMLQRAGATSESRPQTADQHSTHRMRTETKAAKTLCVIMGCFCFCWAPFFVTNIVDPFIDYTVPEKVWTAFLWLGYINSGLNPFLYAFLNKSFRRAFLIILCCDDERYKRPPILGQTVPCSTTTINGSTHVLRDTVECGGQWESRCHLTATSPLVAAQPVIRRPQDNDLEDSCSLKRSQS
UniProt P35563, 24-483: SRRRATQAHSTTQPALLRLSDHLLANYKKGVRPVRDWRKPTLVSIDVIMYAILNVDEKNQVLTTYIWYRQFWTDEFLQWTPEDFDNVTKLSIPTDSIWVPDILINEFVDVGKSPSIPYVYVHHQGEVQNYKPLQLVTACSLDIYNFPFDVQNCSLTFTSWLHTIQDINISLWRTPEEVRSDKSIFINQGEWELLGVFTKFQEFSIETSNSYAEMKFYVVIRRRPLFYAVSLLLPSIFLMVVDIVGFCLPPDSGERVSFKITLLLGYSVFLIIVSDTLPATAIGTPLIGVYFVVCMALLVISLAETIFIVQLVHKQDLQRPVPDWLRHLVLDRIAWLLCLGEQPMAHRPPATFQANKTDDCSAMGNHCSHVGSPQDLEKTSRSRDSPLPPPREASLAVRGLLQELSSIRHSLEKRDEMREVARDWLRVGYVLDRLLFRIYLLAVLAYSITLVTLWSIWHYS

The target of test [2] is T2, 5-HT3 receptor (Rattus norvegicus, UniProt P35563).
T2 construct: Brain cortices were obtained from male rats and a membrane fraction prepared by standard techniques; from tissue; host or cells: rat brain cortex, membrane fraction
Briefly: [3H]-GR65630 radioligand binding to 5-HT3 receptor, rat brain cortex membranes. The conditions noted are these: [3H]-GR65630 bound (0.2 nM). On the procedure: as §1
GR65630 binds to the 5-HT3 receptor. Brain cortices were obtained from male rats and a membrane fraction prepared by standard techniques. 0.04 mg of membrane prep was incubated with 0.2 nM […] for 60 minutes at 22° C. […] Membranes were filtered and washed 3 times and the filters were counted to determine [3H]-GR65630 specifically bound. (Kilpatrick G. J., Jones B. J. and Tyers M. B. Identification and distribution of 5-HT3 receptors in rat brain using radioligand binding. Nature, 330: 746-748, 1987).

For orientation: EC50 means the concentration needed to bring the measured effect to its halfway point. With `NCCc1c[nH]c2ccc(O)cc12` [Example 5-HT, 5-hydroxytryptamine], the EC50 in test [1] amounted to 9 nM. For the same compound, the “Hill Coefficient” value in test [2] was 1.0.
